ChEMBL document CHEMBL1139143, “Synthesis and structure-activity relationships of N-substituted spiropiperidines as nociceptin receptor ligands” (Bioorg Med Chem Lett, 2007)

The chains behind the UniProt entries cited, without tags or fusion partners.
UniProt P41146, whole entry: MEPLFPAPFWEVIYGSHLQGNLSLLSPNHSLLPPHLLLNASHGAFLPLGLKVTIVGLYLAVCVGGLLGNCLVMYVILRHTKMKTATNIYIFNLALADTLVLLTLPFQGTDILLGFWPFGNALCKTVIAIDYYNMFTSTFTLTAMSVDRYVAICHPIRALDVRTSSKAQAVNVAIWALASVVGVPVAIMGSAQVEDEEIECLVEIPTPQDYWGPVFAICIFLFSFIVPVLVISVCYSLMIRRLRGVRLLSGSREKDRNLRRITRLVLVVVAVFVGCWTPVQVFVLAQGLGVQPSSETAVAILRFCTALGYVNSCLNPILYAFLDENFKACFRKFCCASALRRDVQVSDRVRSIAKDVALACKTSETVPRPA
UniProt P41143, whole entry: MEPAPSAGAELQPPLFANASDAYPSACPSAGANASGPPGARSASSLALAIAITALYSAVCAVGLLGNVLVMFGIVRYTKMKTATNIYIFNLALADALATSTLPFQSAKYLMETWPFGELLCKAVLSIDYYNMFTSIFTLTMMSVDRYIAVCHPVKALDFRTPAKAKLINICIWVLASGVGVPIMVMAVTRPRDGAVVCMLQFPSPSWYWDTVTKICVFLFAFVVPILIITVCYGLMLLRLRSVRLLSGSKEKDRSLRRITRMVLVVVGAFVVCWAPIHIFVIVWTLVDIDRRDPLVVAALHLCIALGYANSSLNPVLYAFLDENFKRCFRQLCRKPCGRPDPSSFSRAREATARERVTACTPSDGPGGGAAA
UniProt P35372, whole entry: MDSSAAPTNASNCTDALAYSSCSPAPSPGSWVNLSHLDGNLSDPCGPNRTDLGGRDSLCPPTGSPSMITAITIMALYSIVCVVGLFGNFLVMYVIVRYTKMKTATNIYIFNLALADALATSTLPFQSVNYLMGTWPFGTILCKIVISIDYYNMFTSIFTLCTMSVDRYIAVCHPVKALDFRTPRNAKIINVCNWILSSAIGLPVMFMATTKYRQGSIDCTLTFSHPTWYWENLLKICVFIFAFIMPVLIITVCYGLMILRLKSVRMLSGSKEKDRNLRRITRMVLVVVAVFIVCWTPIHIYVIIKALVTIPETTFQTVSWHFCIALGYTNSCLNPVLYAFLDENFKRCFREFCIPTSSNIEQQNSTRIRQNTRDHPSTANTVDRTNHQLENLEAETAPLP
UniProt P41145, whole entry: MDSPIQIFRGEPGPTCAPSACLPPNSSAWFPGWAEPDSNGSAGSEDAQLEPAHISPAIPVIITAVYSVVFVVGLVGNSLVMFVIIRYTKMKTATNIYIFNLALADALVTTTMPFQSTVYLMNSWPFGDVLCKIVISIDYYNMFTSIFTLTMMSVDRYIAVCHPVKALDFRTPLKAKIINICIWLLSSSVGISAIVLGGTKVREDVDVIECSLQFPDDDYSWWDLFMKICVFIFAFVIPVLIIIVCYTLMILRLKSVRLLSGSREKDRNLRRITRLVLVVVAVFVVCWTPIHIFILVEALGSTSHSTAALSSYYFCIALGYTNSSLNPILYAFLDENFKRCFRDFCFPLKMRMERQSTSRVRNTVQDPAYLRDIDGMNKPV

How the values were obtained:
[1] = biological target: Nociceptin receptor (Homo sapiens, UniProt P41146); experiment: Displacement of [125I]nociceptin from human nociceptin receptor expressed in CHO cell membrane
[2] = biological target: Delta-type opioid receptor (Homo sapiens, UniProt P41143); experiment: Displacement of [3H]diprenorphine from human delta opioid receptor expressed in CHO cell membrane
[3] = biological target: Mu-type opioid receptor (Homo sapiens, UniProt P35372); experiment: Displacement of [3H]diprenorphine from human mu opioid receptor expressed in CHO cell membrane
[4] = biological target: Kappa-type opioid receptor (Homo sapiens, UniProt P41145); experiment: Displacement of [3H]diprenorphine from human kappa opioid receptor expressed in CHO cell membrane

Compound	Ki [1]	Ki [2]	Ki [3]	Ki [4]
O=C1NCN(c2ccccc2)C12CCN(C1CCc3ccccc31)CC2 (stereo unspecified)	1.2 nM	1850 nM	19 nM	32 nM
O=C1NCN(c2ccccc2)C12CCN(C1CCCc3cccc(F)c31)CC2 (stereo unspecified)	0.3 nM	1230 nM	5.1 nM	145 nM
O=C1NCN(c2ccccc2)C12CCN(Cc1cccnc1)CC2	133 nM	3790 nM	233 nM	252 nM
CCCCC(c1ccccc1)N1CCC2(CC1)C(=O)NCN2c1ccccc1 (stereo unspecified)	1.1 nM	1420 nM	22 nM	13 nM
O=C1NCN(c2ccccc2)C12CCN(Cc1ccncc1)CC2	824 nM			
CC(C)CCC(c1ccccc1)N1CCC2(CC1)C(=O)NCN2c1ccccc1 (stereo unspecified)	1.5 nM	736 nM	30 nM	25.5 nM
